In article PMC9182007, “Statistical Methods in the Study of Protein Binding and Its Relationship to Drug Bioavailability in Breast Milk” (Molecules, 2022):
Read-outs that look alike come from different tables or passages of the source.

Chains of the proteins cited; added tags and fusions are not shown. Residues count along the entry.
UniProt P02768, 25-609: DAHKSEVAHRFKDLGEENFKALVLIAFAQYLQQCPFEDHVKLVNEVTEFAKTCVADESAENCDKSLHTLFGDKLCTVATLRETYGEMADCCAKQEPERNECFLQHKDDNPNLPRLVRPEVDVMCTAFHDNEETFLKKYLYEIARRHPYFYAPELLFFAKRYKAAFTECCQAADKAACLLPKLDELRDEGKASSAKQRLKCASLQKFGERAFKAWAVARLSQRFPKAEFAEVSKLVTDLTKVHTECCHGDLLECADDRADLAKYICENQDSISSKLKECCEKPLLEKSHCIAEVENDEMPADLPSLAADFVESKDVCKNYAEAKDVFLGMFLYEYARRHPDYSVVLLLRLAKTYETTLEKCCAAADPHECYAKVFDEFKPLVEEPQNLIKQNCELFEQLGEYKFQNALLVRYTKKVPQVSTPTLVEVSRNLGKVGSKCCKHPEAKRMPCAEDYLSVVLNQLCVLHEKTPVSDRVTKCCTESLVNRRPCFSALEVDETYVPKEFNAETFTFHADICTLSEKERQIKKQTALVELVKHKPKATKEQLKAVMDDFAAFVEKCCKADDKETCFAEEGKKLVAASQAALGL

Key:
[1] = cited from earlier work
[2] = ref DrugBank [7], cited from earlier work
[3] = Milk-to-plasma (M/P) drug concentration ratio obtained in vivo, from literature; conditions: Table S1, scale of drug penetration into milk 1-4
[4] = molecular target: T1, human serum albumin (HSA) (Homo sapiens, UniProt P02768); experiment: in vitro; conditions: immobilized hsa column, pH 7.4
[5] = molecular target: T1, human serum albumin (HSA); conditions: immobilized hsa column, pH 7.4
[6] = Table S1, milk/plasma drug concentration ratio, in vivo

SMILES | CNS+/- ([2]; Table S1, coded 1/0) | M/P code [3] | other results
COc1ccc(CCN2CCC(Nc3nc4ccccc4n3Cc3ccc(F)cc3)CC2)cc1 [astemizol] | 1 | 4 (4 is M/P >1.20—dangerous) | M/P [1, 6]: 4.4
CC(C)NCC(O)COc1ccc(COCCOC(C)C)cc1 (centres unmarked) [bisoprolol] | – | – | chromatographic logD [4]: 0.03
C=CCN1C[C@H](C(=O)N(CCCN(C)C)C(=O)NCC)C[C@@H]2c3cccc4[nH]cc(c34)C[C@H]21 [carbegoline] | 1 | – | –
NS(=O)(=O)c1cc(C2(O)NC(=O)c3ccccc32)ccc1Cl (centres unmarked) [chlortalidone] | – | – | chromatographic logD [4]: -0.07
Cc1cc2c(s1)Nc1ccccc1N=C2N1CCN(C)CC1 [olanzapine] | – | 1 (Code 1 corresponds to drugs with an M/P value <0.40—completely safe) | –
CC[C@H]1OC(=O)[C@H](C)[C@@H](O[C@H]2C[C@@](C)(OC)[C@@H](O)[C@H](C)O2)[C@H](C)[C@@H](O[C@@H]2O[C@H](C)C[C@H](N(C)C)[C@H]2O)[C@](C)(O)C[C@@H](C)/C(=N\OCOCCOC)[C@H](C)[C@@H](O)[C@]1(C)O [roxitromicin] | 0 | 1 (Code 1 corresponds to drugs with an M/P value <0.40—completely safe) | M/P [1, 6]: 0.04
CC(C)(C)NC[C@H](O)COc1nsnc1N1CCOCC1 [timolol] | – | – | log kHSA [5]: -0.88; M/P ([1]; Table S6, external group (n = 38)): 0.80; CNS+/- ([2]; Table S6, external group, coded 1/0): 0
CN(C)CCc1c[nH]c2ccc(C[C@H]3COC(=O)N3)cc12 [zolmitriptane] | 1 | – | –
